Earlier results in patent US8592481B2, “Gastric retentive gabapentin dosage forms and methods for using same” (Depomed, Inc., priority 2005, dated 2013).

## 1-(aminomethyl)cyclohexane acetic acid [gabapentin]
Dose in the range of 300-400 mg
  oral bioavailability: approximately 60%
Dose of 1600 mg
  oral bioavailability: 35%
Single dose or multiple doses
  half-life (renal excretion): 5 to 7 h

Where two headings read alike, the source gives them in different places.
